Values of other authors, collected in article PMC12596218 (Journal of Lipid Research, 2025).

Test system: mAsbt
Conditions: read-out: Km of [14C]TC transport via mAsbt; substrate concentrations 5-40 μM; tested as the radiolabelled form; cited from earlier work

C[C@H](CCC(=O)NCCS(=O)(=O)O)[C@H]1CC[C@H]2[C@@H]3[C@H](O)C[C@@H]4C[C@H](O)CC[C@]4(C)[C@H]3C[C@H](O)[C@]12C
Km: 4.3 µM
